Binding of CDR-mutated scFvs to a peptide of the spike HR2 region

Data: MIT Lincoln Laboratory AlphaSeq set, Engelhart et al. 2022, doi:10.1038/s41597-022-01779-4, as distributed in FLAb.

All variants were tested on one target, the spike HR2 peptide PDVDLGDISGINAS (SARS-CoV-2).

Parent: Ab-14, a human scFv built as VH, a (GGGGS)3 linker, VL. Only the CDRs of the heavy chain vary.
VH: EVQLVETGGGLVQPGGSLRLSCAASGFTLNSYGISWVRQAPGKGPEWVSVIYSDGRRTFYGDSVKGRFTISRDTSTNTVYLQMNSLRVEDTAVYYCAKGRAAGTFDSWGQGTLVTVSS
VL: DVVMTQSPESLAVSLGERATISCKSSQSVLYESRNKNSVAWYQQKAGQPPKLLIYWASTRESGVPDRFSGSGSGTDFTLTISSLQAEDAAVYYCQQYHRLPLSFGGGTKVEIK

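Library AAYL49 holds single substitutions and randomly drawn double and triple substitutions in the CDRs. The scFvs were displayed on barcoded MATa yeast, the peptide on MATalpha yeast. Pairs that bind mate more often; barcode pairs of the diploids are counted by sequencing. Scores were corrected for input abundance and mapped to Kd with protein pairs of known affinity run in the same pool. There are three technical replicates.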

Variants are written as CDR1, CDR2 and CDR3 of the heavy chain (limits as in the source). Parent: GFTLNSYGIS, VIYSDGRRTFYGDSVK, GRAAGTFDS.
This list gathers variants with a substitution at D54 (VH, numbered from residue 1).
Each Kd is an estimate from the mating assay, the geometric mean of the replicates in which the pair was seen; lower is stronger.
"nd" means that the variant was in the library but no mating with the target was seen in any replicate; the authors take this as a sign of poor binding, and no number exists.

* GFTLNSYGIS | VIYSNGRRTFYGDSVK | GRAAVTFDS = nd (0 of 3 replicates; controls 0 of 9)
* GFTLNSYGIS | VIYSLGRRTKYGDSVK | HRAAGTFDS = nd (0 of 3 replicates; controls 1 of 9)
* GFTLNSYGIS | VIYSGGRRTFPGDSVK | GRAAGTFDS = 740 nM (1 of 3 replicates; controls 4 of 9)
* GFTLNSYGIS | FIYSKGRRTFYGDSVK | NRAAGTFDS = 7.9 µM (1 of 3 replicates; controls 0 of 9)
* GFTLNSYGIS | VIYSKGYRPFYGDSVK | GRAAGTFDS = nd (0 of 3 replicates; controls 0 of 9)
* GFTLNSYGIS | VIYSSGRRTFYGDKVK | GRAAGTFDS = 14 µM (3 of 3 replicates; controls 3 of 9)
* GFTLNSYGIS | VIYSKGRRTFYGDSVK | GRAAGTFDS = 18 µM (3 of 3 replicates; controls 2 of 9)
* GFTLNSYGIS | VIASWGRRTFYGDSVK | GRAAGGFDS = 61 µM (1 of 3 replicates; controls 1 of 9)
* GFHLNSYGIS | VIYSSGRRTFYGDSDK | GRAAGTFDS = nd (0 of 3 replicates; controls 1 of 9)
* GFTLNSYGIS | VIYSEGRRTFYGDSVK | GRAAGTFLG = nd (0 of 3 replicates; controls 0 of 9)
* GFTLESYGIS | VIYSQGRRTFYGDSVK | PRAAGTFDS = 140 µM (1 of 3 replicates; controls 4 of 9)
* GFTLNSYKIS | VIYSQGRRTFYGDSVK | GEAAGTFDS = 7.9 µM (2 of 3 replicates; controls 3 of 9)
* WFTLNSYGIS | VIYSVMRRTFYGDSVK | GRAAGTFDS = 98 µM (2 of 3 replicates; controls 4 of 9)
* GFTLNSAGIS | VIYSLGDRTFYGDSVK | GRAAGTFDS = 31 µM (2 of 3 replicates; controls 1 of 9)
* GFTLNSYGIS | VIYYEGMRTFYGDSVK | GRAAGTFDS = 8.3 µM (2 of 3 replicates; controls 2 of 9)
* GFTLNSYGIS | VIYSNGRRTFYGDSVK | GRSTGTFDS = 36 µM (3 of 3 replicates; controls 1 of 9)
* GFTLNSYGIS | VIYSEGRRTFYGDSVK | GRAAGGFDS = nd (0 of 3 replicates; controls 1 of 9)
* GFTLNSYGIS | VGYSAGRRTFYGDSVK | GRAAGTFDS = nd (0 of 3 replicates; controls 0 of 9)
* GFYLNSYGIS | VIYSVGRRTFYNDSVK | GRAAGTFDS = nd (0 of 3 replicates; controls 1 of 9)
* GFTLNSYGIS | VIYSKGRRTFYGDSVK | GRAADTFDS = nd (0 of 3 replicates; controls 1 of 9)
* GFTLNSYGIS | VIYKQGRRKFYGDSVK | GRAAGTFDS = 15 µM (3 of 3 replicates; controls 5 of 9)
* GFTLNSYGIS | VIYSIERRTFYGDSVK | GRAAGTFDS = nd (0 of 3 replicates; controls 0 of 9)
* GFTLNSYGIS | VIYSHGQRTFYGDSVT | GRAAGTFDS = nd (0 of 3 replicates; controls 1 of 9)
* GFTLNSYGIS | VIYSSGRRTFYGGSVK | NRAAGTFDS = nd (0 of 3 replicates; controls 0 of 9)
* GFTLNTYGIS | VIYSVGRRTFYGDSVK | GRAAGTFDS = nd (0 of 3 replicates; controls 2 of 9)
* GFTLNSDGIS | VIYSKGRNTFYGDSVK | GRAAGTFDS = 17 µM (2 of 3 replicates; controls 4 of 9)
* GFTLNSYGIS | VIYSLGRRTFYGDSVK | GRACGTFDS = nd (0 of 3 replicates; controls 1 of 9)
* GFTLNSYQIS | VIYSYGRRHFYGDSVK | GRAAGTFDS = nd (0 of 3 replicates; controls 1 of 9)
* GFTLNSYGIS | VIYSKGRRTFYYDSVK | HRAAGTFDS = 8.1 µM (1 of 3 replicates; controls 2 of 9)
* GFTLNSKGIS | VIYSPGRRTFYGDSVK | GRAAYTFDS = nd (0 of 3 replicates; controls 0 of 9)
* GFTLNSYGIS | VIYSSGGRTFYGDAVK | GRAAGTFDS = nd (0 of 3 replicates; controls 2 of 9)
* GFTLNSYGIG | VIYSQGRRTFYGDSVK | GRAAGTFDS = nd (0 of 3 replicates; controls 0 of 9)
* GFTLNSYGIS | VIYSNGFRTFAGDSVK | GRAAGTFDS = nd (0 of 3 replicates; controls 0 of 9)
* GFTLNSYGIS | VIYSSGGRTFYGDSVK | GRAAGTFDS = nd (0 of 3 replicates; controls 0 of 9)
* GFTLNDYGIS | VIYSCGGRTFYGDSVK | GRAAGTFDS = 6.2 µM (2 of 3 replicates; controls 2 of 9)
* GFTDNSYGIS | VIYSQGRRTFYGDSVK | GWAAGTFDS = nd (0 of 3 replicates; controls 1 of 9)
* GNTLNSYGIS | VIYSNGRRTFYGDSVK | GRAAGTFDS = nd (0 of 3 replicates; controls 4 of 9)
* GFTLNSYGIS | VIFSHGRRTFYGDSVK | GRAEGTFDS = nd (0 of 3 replicates; controls 1 of 9)
* GFTLNSYGIS | VIYSMDRRTFYGDSVK | GRAAGTTDS = nd (0 of 3 replicates; controls 3 of 9)
* GFTLNSYGIS | VIYSMGRHTFRGDSVK | GRAAGTFDS = nd (0 of 3 replicates; controls 0 of 9)
* GFTLNSYGIS | VIYSHRRRTFYGQSVK | GRAAGTFDS = nd (0 of 3 replicates; controls 0 of 9)
* GFTLNSYGNS | VIYSFGRRTPYGDSVK | GRAAGTFDS = nd (0 of 3 replicates; controls 2 of 9)
* GFTLRSYGIS | VCYSLGRRTFYGDSVK | GRAAGTFDS = 1.1 mM (1 of 3 replicates; controls 2 of 9)
* GFTLNSYGIS | VIYSKGRRTFYGDSVK | GRAAWTFDS = nd (0 of 3 replicates; controls 1 of 9)
* GFTGNSYGIS | VIYSPGRRTFYGDSVK | GRAAITFDS = 9.9 µM (1 of 3 replicates; controls 3 of 9)
* GFTLNSYGIS | VIYSRGRRTAYGDSVK | GFAAGTFDS = 920 µM (1 of 3 replicates; controls 4 of 9)
* GFTLNWYGDS | VIYSCGRRTFYGDSVK | GRAAGTFDS = 39 µM (1 of 3 replicates; controls 2 of 9)
* GFTLESYGIS | VIYSAGRRTFYGDSVK | GRAAGTFDS = 8.5 µM (1 of 3 replicates; controls 0 of 9)
* GFTLNSYGID | VIYSHGRRSFYGDSVK | GRAAGTFDS = nd (0 of 3 replicates; controls 0 of 9)
* GFTLNSYGIS | VIYTIIRRTFYGDSVK | GRAAGTFDS = nd (0 of 3 replicates; controls 0 of 9)

Picked from the list: the 3 lowest averages where every replicate gave a value.

{"CDR-H1": "GFTLNSYGIS", "CDR-H2": "VIYSSGRRTFYGDKVK", "CDR-H3": "GRAAGTFDS", "apparent Kd": "14 µM", "replicates with signal": "3/3", "empty controls": "3/9"}
{"CDR-H1": "GFTLNSYGIS", "CDR-H2": "VIYKQGRRKFYGDSVK", "CDR-H3": "GRAAGTFDS", "apparent Kd": "15 µM", "replicates with signal": "3/3", "empty controls": "5/9"}
{"CDR-H1": "GFTLNSYGIS", "CDR-H2": "VIYSKGRRTFYGDSVK", "CDR-H3": "GRAAGTFDS", "apparent Kd": "18 µM", "replicates with signal": "3/3", "empty controls": "2/9"}

Background: pairings of library AAYL49 with three empty control strains gave a value in 15% of cases (median 11 µM, 5th percentile 680 nM). Values in that range, when seen in few replicates, are hard to tell from nonspecific mating. For each scFv, signals with the empty controls are counted beside the result.
For reference, the parent read 4.4 nM as the reference entry and 13 µM (one replicate of three) as a member of this library.